This is an account of results in patent publication US8470816B2, “Nitrogen-containing heterocyclic compound and use thereof” (Takeda Pharmaceutical Company Limited, priority 2007, dated 2013).

Chains of the proteins cited; added tags and fusions are not shown.
UniProt P25103, whole entry: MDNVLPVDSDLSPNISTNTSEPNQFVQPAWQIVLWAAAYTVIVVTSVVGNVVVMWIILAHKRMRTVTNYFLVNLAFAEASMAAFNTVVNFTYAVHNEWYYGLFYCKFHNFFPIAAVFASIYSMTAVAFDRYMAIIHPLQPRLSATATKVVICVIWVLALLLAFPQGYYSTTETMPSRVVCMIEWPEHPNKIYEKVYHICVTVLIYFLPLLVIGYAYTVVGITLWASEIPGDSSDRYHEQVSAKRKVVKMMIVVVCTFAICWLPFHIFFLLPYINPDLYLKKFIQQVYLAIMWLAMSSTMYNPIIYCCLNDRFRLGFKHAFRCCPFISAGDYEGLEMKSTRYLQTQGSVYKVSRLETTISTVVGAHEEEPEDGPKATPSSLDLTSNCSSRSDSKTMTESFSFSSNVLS

For orientation: IC50 means the concentration that inhibits the measured activity by half.

The target of the assay is human NK1 receptor (Homo sapiens (Human), UniProt P25103). As to the kind of experiment: Human NK1 receptor binding assay: radioligand (125I-Bolton-Hunter-SP) binding inhibition using receptor from human lymphoblast cells (IM-9). The note with it: IM-9 cell receptor, read-out: hNK1 IC50.

`CC(=O)N1CCC(C(=O)N2C[C@@H](N(C)C(=O)c3cc(C(F)(F)F)cc(C(F)(F)F)c3)[C@H](c3ccc(Cl)c(Cl)c3)C2)CC1` (racemic) [Example 82, N-[(3S*,4R*)-1-[(1-acetylpiperidin-4-yl)carbonyl]-4-(3,4-dichlorophenyl)pyrrolidin-3-yl]-N-methyl-3,5-bis(trifluoromethyl)benzamide]: the concentration for half-maximal inhibition (IC50) came out at 1.5 nM.
